Data as given in patent US20240254119A1 (THIRD HARMONIC BIO, INC., priority 2022, published 2024).

Chains of the proteins cited; added tags and fusions are not shown. Residues count along the entry.
UniProt P10721, 26-976 limits assumed: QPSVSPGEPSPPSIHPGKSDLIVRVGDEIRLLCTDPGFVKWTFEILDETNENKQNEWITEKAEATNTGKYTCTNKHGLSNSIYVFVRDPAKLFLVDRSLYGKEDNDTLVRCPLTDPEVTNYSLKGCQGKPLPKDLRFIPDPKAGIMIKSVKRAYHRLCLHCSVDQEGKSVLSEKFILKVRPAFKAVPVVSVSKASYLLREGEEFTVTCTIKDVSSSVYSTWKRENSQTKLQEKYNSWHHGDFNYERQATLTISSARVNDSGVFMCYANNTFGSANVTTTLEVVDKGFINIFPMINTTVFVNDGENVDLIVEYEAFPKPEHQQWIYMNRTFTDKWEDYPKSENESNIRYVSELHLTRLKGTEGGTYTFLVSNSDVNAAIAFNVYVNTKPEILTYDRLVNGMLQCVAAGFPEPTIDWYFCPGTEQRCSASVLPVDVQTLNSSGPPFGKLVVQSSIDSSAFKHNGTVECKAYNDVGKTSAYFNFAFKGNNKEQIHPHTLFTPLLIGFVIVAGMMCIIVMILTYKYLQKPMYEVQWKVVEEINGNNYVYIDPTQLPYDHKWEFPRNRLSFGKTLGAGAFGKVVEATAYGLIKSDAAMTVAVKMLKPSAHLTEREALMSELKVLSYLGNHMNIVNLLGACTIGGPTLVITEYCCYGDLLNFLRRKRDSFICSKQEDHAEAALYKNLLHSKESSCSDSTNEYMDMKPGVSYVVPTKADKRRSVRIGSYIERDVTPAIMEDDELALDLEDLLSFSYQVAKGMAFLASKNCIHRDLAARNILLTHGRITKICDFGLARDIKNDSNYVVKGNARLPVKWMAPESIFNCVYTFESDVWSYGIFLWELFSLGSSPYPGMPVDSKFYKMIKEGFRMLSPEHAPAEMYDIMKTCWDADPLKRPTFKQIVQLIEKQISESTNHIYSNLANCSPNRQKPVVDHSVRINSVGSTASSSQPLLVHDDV
UniProt P07333, 20-972 limits assumed: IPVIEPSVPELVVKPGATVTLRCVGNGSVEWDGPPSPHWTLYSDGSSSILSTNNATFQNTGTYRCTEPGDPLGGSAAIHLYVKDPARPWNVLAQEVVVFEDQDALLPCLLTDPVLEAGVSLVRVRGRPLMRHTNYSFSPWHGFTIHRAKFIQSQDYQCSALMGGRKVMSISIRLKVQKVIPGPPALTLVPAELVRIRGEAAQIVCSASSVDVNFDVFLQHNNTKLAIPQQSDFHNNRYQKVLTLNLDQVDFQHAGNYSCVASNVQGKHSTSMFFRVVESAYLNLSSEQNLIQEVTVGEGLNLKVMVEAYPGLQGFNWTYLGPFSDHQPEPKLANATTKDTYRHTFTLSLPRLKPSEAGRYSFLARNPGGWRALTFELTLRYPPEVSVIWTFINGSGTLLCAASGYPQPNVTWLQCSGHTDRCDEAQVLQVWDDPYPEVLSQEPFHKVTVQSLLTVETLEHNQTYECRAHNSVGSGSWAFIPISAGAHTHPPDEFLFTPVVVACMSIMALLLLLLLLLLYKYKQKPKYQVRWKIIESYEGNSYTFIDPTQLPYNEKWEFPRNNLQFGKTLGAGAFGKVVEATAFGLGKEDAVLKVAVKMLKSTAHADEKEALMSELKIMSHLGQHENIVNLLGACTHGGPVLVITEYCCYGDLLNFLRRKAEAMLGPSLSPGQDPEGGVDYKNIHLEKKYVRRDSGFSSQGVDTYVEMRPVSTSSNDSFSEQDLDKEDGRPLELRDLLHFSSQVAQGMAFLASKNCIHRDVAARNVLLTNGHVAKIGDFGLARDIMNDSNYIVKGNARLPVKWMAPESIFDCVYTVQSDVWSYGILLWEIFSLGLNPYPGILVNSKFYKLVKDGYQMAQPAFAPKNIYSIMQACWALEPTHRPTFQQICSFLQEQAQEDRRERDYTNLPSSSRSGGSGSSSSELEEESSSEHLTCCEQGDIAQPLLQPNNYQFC
UniProt P16234, 24-1089 limits assumed: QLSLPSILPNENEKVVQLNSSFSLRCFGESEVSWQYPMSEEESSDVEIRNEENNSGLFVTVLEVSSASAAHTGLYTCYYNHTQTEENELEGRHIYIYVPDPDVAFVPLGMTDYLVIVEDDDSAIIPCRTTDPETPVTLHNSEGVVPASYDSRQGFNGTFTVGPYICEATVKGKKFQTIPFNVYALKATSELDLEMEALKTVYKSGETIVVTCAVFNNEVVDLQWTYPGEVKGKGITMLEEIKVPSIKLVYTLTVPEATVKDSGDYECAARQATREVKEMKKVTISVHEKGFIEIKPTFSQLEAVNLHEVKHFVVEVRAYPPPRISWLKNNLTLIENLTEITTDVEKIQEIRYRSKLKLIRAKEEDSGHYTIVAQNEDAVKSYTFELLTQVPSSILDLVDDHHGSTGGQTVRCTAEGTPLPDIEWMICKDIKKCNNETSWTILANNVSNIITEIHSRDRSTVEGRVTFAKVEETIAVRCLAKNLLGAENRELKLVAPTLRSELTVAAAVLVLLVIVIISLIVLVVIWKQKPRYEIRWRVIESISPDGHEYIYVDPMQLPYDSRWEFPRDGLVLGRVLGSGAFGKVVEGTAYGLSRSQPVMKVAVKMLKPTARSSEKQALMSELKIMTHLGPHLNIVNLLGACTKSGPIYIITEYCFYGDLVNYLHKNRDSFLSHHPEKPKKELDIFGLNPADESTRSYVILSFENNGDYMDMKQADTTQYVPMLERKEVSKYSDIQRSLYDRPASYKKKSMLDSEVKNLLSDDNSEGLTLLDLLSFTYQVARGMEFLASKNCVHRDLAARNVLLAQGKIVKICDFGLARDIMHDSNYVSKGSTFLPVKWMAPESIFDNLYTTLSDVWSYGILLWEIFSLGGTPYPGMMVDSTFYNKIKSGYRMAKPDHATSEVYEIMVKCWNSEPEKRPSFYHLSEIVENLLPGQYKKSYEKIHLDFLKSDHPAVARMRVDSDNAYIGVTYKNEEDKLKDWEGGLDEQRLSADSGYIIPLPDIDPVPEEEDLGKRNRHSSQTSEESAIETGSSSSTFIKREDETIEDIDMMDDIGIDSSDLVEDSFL

What was measured:
Kinetic solubility assay = conditions: 50 mM PB (pH 7.4), shaken 24 hours at RT
wtKIT [1] = biological target: T1, wtKIT (Homo sapiens, UniProt P10721); assay: Caliper biochemical assay, wtKIT; conditions: read-out: KIT Biochemical IC50 avg, Table 6
CSF-1R = CSF-1R (Homo sapiens, UniProt P07333); assay: Caliper biochemical assay, CSF-1R; conditions: read-out: CSF-1R Biochemical IC50, Table 6
PDGFRα = PDGFRα (Homo sapiens, UniProt P16234); assay: Caliper biochemical assay, PDGFRα; conditions: read-out: PDGFRα Biochemical Avg IC50, Table 6
wtKIT [2] = biological target: T1, wtKIT; assay: HTRF biochemical assay, wtKIT (phosphorylation of a peptide substrate); conditions: read-out: KIT Biochemical IC50 avg, Table 4

Compound | Solubility (μM) (Kinetic solubility assay) | IC50 (wtKIT [1]) | IC50 (CSF-1R) | IC50 (PDGFRα) | IC50 (wtKIT [2])
Cc1ccc(-c2noc(C34CCC(CC3(F)F)C4)n2)cc1NC(=O)c1cnc2ccccn12 (stereo not drawn) | **** (a solubility less than or equal to 2 μM) | < 50 nM | – | – | –
Cc1ccc(-c2noc(C3=CC(C)(C)C3)n2)cc1NC(=O)c1cnc2ccccn12 | **** (a solubility less than or equal to 2 μM) | < 50 nM | < 50 nM | 50 to 500 nM | –
Cc1ccc(-c2noc(C3CC3F)n2)cc1NC(=O)c1cnc2ccc(C(N)=O)cn12 (stereo not drawn) | ** (a solubility greater than 10 μM and less than or equal to 50 μM) | < 50 nM | 50 to 500 nM | 5000 to 30000 nM | –
O=C(Nc1cc(-c2noc([C@H]3CCN3)n2)ccc1Cl)c1cnc2ccccn12 | **** (a solubility less than or equal to 2 μM) | < 50 nM | < 50 nM | 50 to 500 nM | –
Cc1ccc(-c2noc(C3CCS(=O)(=O)N3)n2)cc1NC(=O)c1cnc2ccccn12 (single isomer, unassigned) [I-248] | *** (a solubility greater than 2 μM and less than or equal to 10 μM) | 50 to 500 nM | – | – | 50 to 500 nM
Cc1ccc(-c2noc([C@H]3C[C@@H]3F)n2)cc1NC(=O)c1cnc2cc(Nc3ccc4c(c3)CCC4)ccn12 | *** (a solubility greater than 2 μM and less than or equal to 10 μM) | < 50 nM | – | – | –
Cc1ccc(-c2noc([C@H]3C[C@@H]3F)n2)cc1NC(=O)c1cnc2cc(Nc3ccc(OC(F)F)cc3)ccn12 | ** (a solubility greater than 10 μM and less than or equal to 50 μM) | < 50 nM | – | – | –
Cc1ccc(-c2noc(C3CCS(=O)(=O)N3)n2)cc1NC(=O)c1cnc2ccccn12 (single isomer, unassigned) [I-249] | *** (a solubility greater than 2 μM and less than or equal to 10 μM) | < 50 nM | – | – | 50 to 500 nM
Cc1ccc(-c2noc([C@H]3C[C@H](F)CN3)n2)cc1NC(=O)c1cnc2ccccn12 | – | < 50 nM | 50 to 500 nM | 500 to 5000 nM | –
Cc1ccc(-c2noc(C34CCC(C)(CC3)CC4)n2)cc1NC(=O)c1cnc2ccccn12 | **** (a solubility less than or equal to 2 μM) | < 50 nM | – | – | –
Cc1ccc(-c2noc(C34CC3CCC4(F)F)n2)cc1NC(=O)c1cnc2ccccn12 (stereo not drawn) | **** (a solubility less than or equal to 2 μM) | < 50 nM | – | – | –
CCNc1ccc2ncc(C(=O)Nc3cc(-c4noc(CC)n4)ccc3C)n2c1 | – | < 50 nM | < 50 nM | 50 to 500 nM | –
COC(=O)N1CC(c2nc(-c3ccc(C)c(NC(=O)c4cnc5cc(O[C@H]6CC[C@@H]6O)ccn45)c3)no2)C1 (relative stereo) | – | < 50 nM | < 50 nM | 500 to 5000 nM | 50 to 500 nM
COCCS(=O)(=O)N1CCC1c1nc(-c2ccc(C)c(NC(=O)c3cnc4ccccn34)c2)no1 (stereo not drawn) | ** (a solubility greater than 10 μM and less than or equal to 50 μM) | < 50 nM | – | – | 50 to 500 nM
Cc1ccc(-c2noc([C@H]3CCN3)n2)cc1NC(=O)c1cnc2ccccn12 | * (a solubility greater than 50 μM) | < 50 nM | – | – | 50 to 500 nM
CO[C@H]1C[C@@H](c2nc(-c3ccc(C)c(NC(=O)c4cnc5ccccn45)c3)no2)C12CCC2 (relative stereo) | ** (a solubility greater than 10 μM and less than or equal to 50 μM) | < 50 nM | – | – | –
CCNc1ccc2ncc(C(=O)Nc3cc(-c4noc(C)n4)ccc3C)n2c1 | – | < 50 nM | < 50 nM | 50 to 500 nM | –
CCCS(=O)(=O)N1CC(c2nc(-c3ccc(C)c(NC(=O)c4cnc5ccc(NCC)cn45)c3)no2)C1 | – | < 50 nM | 50 to 500 nM | 500 to 5000 nM | –
Cc1ccc(-c2noc([C@H]3CCN3C(=O)OC(C)(C)C)n2)cc1NC(=O)c1cnc2ccccn12 | ** (a solubility greater than 10 μM and less than or equal to 50 μM) | 50 to 500 nM | – | – | –
